Earlier results as cited in patent publication US20150307508A1, “Application of an alkaloid derived from a Chinese herbal for treatment of cancer by inhibiting cholesterol synthesis and fatty acid oxidation” (Macau University of Science and Technology, priority 2014, published 2015).

Key:
HCC827 = settings: cited from earlier work
A549 (EGFR^Wild type) = settings: cited from earlier work

COc1cc2ncnc(Nc3ccc(F)c(Cl)c3)c2cc1OCCCN1CCOCC1 [Gefitinib]
Gefitinib Sensitivity (HCC827): Sensitive | Gefitinib Sensitivity (A549 (EGFR^Wild type)): Moderately sensitive
